{"sequences": {"note": "Chains of the proteins cited; added tags and fusions are not shown.", "UniProt P21554, whole entry": "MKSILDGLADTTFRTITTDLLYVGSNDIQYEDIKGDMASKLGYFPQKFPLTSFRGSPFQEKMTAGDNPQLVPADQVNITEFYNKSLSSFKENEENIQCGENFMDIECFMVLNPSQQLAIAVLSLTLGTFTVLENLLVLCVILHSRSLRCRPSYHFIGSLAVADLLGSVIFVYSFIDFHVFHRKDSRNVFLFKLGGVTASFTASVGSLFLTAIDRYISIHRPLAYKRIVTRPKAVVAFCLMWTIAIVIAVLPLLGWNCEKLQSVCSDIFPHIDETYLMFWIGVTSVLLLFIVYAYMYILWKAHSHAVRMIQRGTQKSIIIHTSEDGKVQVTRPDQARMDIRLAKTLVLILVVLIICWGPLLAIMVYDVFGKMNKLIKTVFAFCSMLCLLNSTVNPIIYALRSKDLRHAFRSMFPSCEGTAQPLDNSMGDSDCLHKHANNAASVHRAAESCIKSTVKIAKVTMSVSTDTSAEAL"}, "source": "patent US11084781B2", "about": "“Diarylureas as CB1 allosteric modulators” (Research Triangle Institute, priority 2017, dated 2021)", "target": "T1, human CB1 receptor (Homo sapiens, UniProt P21554)", "T1 construct": "host or cells: CHO-RD-HGA16 cells (CHO cells overexpressing promiscuous Galpha16)", "test": "CB1 calcium mobilization assay (antagonist mode, against EC80 of CP55,940)", "type": "cell-based", "settings": "Table 1; against EC80 (100 nM) of CP55,940; mean ± S.E.M.", "data": [{"smiles": "O=C(Nc1ccc(Cl)cc1)Nc1cccc(-c2cccc(N3CCCC3)n2)c1", "note": "[Compound B, 1-(4-Chlorophenyl)-3-{3-[6-(pyrrolidin-1-yl)pyridin-2-yl]phenyl}urea, reference compound]", "values": [{"measurement": "IC50", "result": "33 ± 8", "unit": "nM"}]}]}
